From patent publication US9120797B2, “Process for preparing spirocyclic cyclohexane compounds, compositions containing such compounds and method of using such compounds” (dated 2015)

Protein sequences, listed by entry. Tags and fused reporters are not part of them. Lines headed by an entry give the natural chain unless they say otherwise; changes in a name come on top.
UniProt P41146: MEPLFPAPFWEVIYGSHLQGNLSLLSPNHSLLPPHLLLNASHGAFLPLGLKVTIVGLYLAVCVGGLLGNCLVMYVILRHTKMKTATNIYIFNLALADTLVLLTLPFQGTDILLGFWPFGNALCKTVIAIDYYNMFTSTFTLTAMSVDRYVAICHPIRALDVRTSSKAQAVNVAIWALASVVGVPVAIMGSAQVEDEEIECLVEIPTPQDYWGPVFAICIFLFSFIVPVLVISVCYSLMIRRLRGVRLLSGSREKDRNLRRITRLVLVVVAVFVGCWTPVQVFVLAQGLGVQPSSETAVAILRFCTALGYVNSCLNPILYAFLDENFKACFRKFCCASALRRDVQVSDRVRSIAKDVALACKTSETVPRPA
UniProt P35372, whole entry, looked up: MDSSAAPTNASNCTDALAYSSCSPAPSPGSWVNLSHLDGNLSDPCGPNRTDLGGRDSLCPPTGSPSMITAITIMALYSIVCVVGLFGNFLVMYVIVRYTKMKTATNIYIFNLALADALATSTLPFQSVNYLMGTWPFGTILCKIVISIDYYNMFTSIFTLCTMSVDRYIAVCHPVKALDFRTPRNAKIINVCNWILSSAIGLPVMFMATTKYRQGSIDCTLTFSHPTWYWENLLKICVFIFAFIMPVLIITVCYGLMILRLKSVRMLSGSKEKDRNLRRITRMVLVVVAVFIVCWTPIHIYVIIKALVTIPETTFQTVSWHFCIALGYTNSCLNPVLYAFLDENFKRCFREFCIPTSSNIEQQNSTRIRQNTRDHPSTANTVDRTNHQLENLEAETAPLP

Assays:
[1] = target: ORL1 receptor (Homo sapiens (Human), UniProt P41146); conditions: c=1 μM test substance
[2] = target: human μ-opiate receptor (Homo sapiens (Human), UniProt P35372); conditions: 1 μmole/l test substance
[3] = tested on: mice; assay: Tail flick test in mice; conditions: for Tail flick (mouse, i.v.) % inhibition (dose [mg/kg]): % of maximum possible antinociceptive effect
[4] = tested on: mice; assay: Phenylquinone-induced writhing test in mice

| Structure (SMILES) | μ % inhibition [1 μM] [2] [%] | Tail flick (mouse, i.v.) ED50 [3] [mg/kg] | also measured |
| --- | --- | --- | --- |
| CN(C)C1(c2ccccc2)CCC2(CC1)NCCc1c2oc2ccccc12 (stereo not drawn) | 86 |  | ORL1 % inhibition [1 μM] [1]: 75% |
| CNC1(c2ccccc2)CCC2(CC1)OCCc1c2[nH]c2ccc(F)cc12 (stereo not drawn) |  | 0.22 |  |
| CN(C)C1(c2ccc(F)cc2)CCC2(CC1)OCCc1c2[nH]c2ccccc12 (stereo not drawn) |  |  | Tail flick (mouse, i.v.) % inhibition (dose [mg/kg]) ([3]; dose 0.1 mg/kg): 100% (0.1) |
| CN(C)C1(c2ccccc2)CCC2(CC1)OC1CCCCC1c1c2[nH]c2ccccc12 (stereo not drawn) | 96 |  | ORL1 % inhibition [1 μM] [1]: 91% |
| CNC1(c2ccccc2)CCC2(CC1)OCCc1c2[nH]c2ccccc12 (stereo not drawn) |  | 0.042 |  |
| CC1Cc2c(n(C)c3ccccc23)C2(CCC(c3ccccc3)(N(C)C)CC2)O1 (stereo not drawn) | 75 |  |  |
| CN(C)C1(c2ccc(F)cc2)CCC2(CC1)OCCc1c2sc2ccccc12 (stereo not drawn) | 76 |  |  |
| CC(=O)N1CCc2c([nH]c3cc(F)ccc23)C12CCC(c1ccccc1)(N(C)C)CC2 (stereo not drawn) |  |  | Tail flick (mouse, i.v.) % inhibition (dose [mg/kg]) ([3]; dose 0.1 mg/kg): 100% (0.1) |
| CN(C)C1(c2ccccc2)CCC2(CC1)OCCc1c2oc2ccccc12 (stereo not drawn) | 80 |  | Writhing (mouse, i.v.) % inhibition (dose [mg/kg]) ([4]; dose 10 mg/kg): 89% (10) |
| CC1Cc2c(n(-c3ccccc3)c3ccccc23)C2(CCC(c3ccccc3)(N(C)C)CC2)O1 (stereo not drawn) | 43 |  |  |
| CN(C)C1(c2ccccc2)CCC2(CC1)NC(CO)Cc1c2[nH]c2ccccc12 (stereo not drawn) |  |  | ORL1 % inhibition [1 μM] [1]: 99% |
| CN(C)C1(c2ccccc2)CCC2(CC1)OCCc1c2sc2ccccc12 (stereo not drawn) | 53 |  |  |
| Cc1ccc2[nH]c3c(c2c1)CC(C)OC31CCC(c2ccccc2)(N(C)C)CC1 (stereo not drawn) | 90 |  | ORL1 % inhibition [1 μM] [1]: 56%; Tail flick (mouse, i.v.) % inhibition (dose [mg/kg]) ([3]; dose 1 mg/kg): 100% (1) |
| CN(C)C1(c2ccccc2)CCC2(CC1)OCCc1c2[nH]c2ccc(O)cc12 (stereo not drawn) |  | 0.013 |  |
| CN(C)C1(c2cccc(F)c2)CCC2(CC1)SCCc1c2[nH]c2ccccc12 (stereo not drawn) | 100 |  | ORL1 % inhibition [1 μM] [1]: 55% |
| COc1ccc2[nH]c3c(c2c1)CCOC31CCC(c2ccccc2)(N(C)C)CC1 (stereo not drawn) |  | 0.02 | Writhing (mouse, i.v.) ED50 [4]: 0.0033 mg/kg |
| CC(=O)N1CCc2c([nH]c3ccc(C)cc23)C12CCC(c1ccccc1)(N(C)C)CC2 (stereo not drawn) | 99 |  | ORL1 % inhibition [1 μM] [1]: 58% |
| CN(C)C1(c2ccc(F)cc2)CCC2(CC1)SCCc1c2[nH]c2ccccc12 (stereo not drawn) | 90 |  |  |
| Cc1ccc2[nH]c3c(c2c1)CCOC31CCC(c2ccccc2)(N(C)C)CC1 (stereo not drawn) |  | 0.039 |  |
| CN(C)C1(c2ccccc2)CCC2(CC1)OCCc1c2[nH]c2ccccc12 (single isomer, unassigned) |  | 0.0035 | Tail flick ED50 (i.p.) ([3]; mouse, i.p.): 0.0182 (i.p.) mg/kg |
| CN(C)C1(c2cccc(F)c2)CCC2(CC1)OCCc1c2[nH]c2ccccc12 (stereo not drawn) |  | 0.018 |  |
